Results reported in patent US7282508B2, “Substituted 4-phenyl-4-(1H-imidazol-2-yl)-piperidine derivatives and their use as selective non-peptide delta opioid agonists” (Janssen Pharmaceutica N.V., priority 2001, dated 2007).

Biological target: cloned human δ opioid receptor (Homo sapiens, UniProt P41143)
Test: Radioligand binding, competitive inhibition of [3H]DPDPE
Conditions: Table 7; C6 glioma cell membranes, [3H]DPDPE 2 nM

COC(=O)c1ccc(Cn2ccnc2C2(c3ccccc3)CCN(c3nc4ccccc4o3)CC2)cc1
Agonist receptor binding (pIC50) delta: 8.5
